Drawing on BindingDB's records for doi:10.1021/acs.jmedchem.1c00173 (Medicines For Malaria Venture, 2021), this text covers IC50 for one compound.

The chains behind the UniProt entries cited, without tags or fusion partners.
UniProt P25103, whole entry: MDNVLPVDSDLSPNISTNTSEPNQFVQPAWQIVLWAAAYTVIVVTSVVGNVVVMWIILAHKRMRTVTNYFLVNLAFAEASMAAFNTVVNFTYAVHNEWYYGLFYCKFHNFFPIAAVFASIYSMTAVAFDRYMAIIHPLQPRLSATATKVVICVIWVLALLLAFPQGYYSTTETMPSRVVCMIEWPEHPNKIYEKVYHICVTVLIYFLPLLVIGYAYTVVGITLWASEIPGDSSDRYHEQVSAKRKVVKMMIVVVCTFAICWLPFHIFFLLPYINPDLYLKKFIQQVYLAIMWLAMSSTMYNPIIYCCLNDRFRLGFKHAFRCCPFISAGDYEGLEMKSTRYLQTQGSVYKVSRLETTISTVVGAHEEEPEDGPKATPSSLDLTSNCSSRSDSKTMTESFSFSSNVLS

This assay has as its target Substance-P receptor (Homo sapiens, UniProt P25103).

As usually defined, the IC50 is the concentration that gives 50% inhibition.

Take `Cc1c(C2(c3ccc(C(F)(F)F)c(C#N)c3)CC2)c[nH]c1C(=O)NC(C)c1nc[nH]n1` (stereo in doubt; form 1): half-maximal inhibition (IC50) was put at 2000 nM.
